The record followed here is ChEMBL document CHEMBL4732071, “Discovery of selective HDAC/BRD4 dual inhibitors as epigenetic probes” (Eur J Med Chem, 2021).

Molecules are shown by their SMILES. pIC50: −log10 of the molar value.

For the assay, the target named is T1, Histone deacetylase 8 (Homo sapiens, UniProt Q9BY41).
T1 sequence (Q9BY41 whole entry): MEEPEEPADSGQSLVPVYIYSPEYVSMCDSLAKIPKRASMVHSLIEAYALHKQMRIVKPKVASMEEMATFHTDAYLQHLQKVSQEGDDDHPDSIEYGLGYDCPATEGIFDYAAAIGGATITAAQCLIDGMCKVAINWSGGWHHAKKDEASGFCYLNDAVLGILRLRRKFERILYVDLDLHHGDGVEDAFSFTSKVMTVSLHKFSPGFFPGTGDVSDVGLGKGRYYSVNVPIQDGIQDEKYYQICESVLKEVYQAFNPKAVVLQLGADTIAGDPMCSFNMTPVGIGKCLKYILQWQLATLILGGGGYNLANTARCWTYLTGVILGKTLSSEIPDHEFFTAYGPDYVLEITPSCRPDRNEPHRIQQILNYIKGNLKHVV
Nature of the assay: Inhibition of HDAC8 (unknown origin) by fluorescence based assay.

The compound `O=C(CCCCCCC(=O)Nc1ccccc1)NO` [VORINOSTAT] had a negative logarithm of the IC50 (pIC50) of 6.69.

What is called pIC50 is the negative decadic logarithm of the IC50, by convention in mol/L. A higher pIC50 goes with a low IC50.
